Measurements published in PubChem BioAssay AID624465 (National Center for Advancing Translational Sciences (NCATS), 2012).
The campaign covered roughly 360,000 compounds. About 300 (0.083%) were called active. The source calls these results inconclusive, neither active nor inactive. No stated cut-off is given here; in the data, active means activation above about 40%; inconclusive means between about 15% and that limit; inactive means weaker than that.

Protein sequences, listed by entry. Tags and fused reporters are not part of them.
UniProt P14416, whole entry, looked up: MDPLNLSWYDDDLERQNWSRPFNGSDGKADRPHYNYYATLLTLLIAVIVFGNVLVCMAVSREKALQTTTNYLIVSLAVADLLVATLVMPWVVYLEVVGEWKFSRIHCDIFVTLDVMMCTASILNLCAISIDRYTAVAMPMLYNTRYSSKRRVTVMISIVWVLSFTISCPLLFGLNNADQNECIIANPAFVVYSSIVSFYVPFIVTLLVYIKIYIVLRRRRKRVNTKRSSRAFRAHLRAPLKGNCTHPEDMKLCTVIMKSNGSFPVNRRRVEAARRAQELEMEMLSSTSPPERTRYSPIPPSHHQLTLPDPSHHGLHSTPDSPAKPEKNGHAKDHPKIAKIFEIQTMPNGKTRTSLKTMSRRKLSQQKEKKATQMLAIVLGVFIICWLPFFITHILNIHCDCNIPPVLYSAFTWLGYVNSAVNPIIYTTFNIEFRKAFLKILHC

What follows are compounds tested against D(2) dopamine receptor (Homo sapiens) (UniProt P14416) (assay: Beta-Arrestin HTS for Positive Allosteric Modulators of the Human D2 Dopamine Receptor: Agonists). Details: DiscoveRx PathHunter D2 beta-arrestin, luminescence, 90 min; hits give high values; 100% = 57 uM dopamine signal.
Source text: There is great interest in identifying small molecule ligands for G-protein coupled receptors (GPCRs) as nearly 50% of all FDA-approved drugs target these important receptor proteins. […] Amongst the dopamine receptors (DARs), the D2 is arguably one of the most validated drug targets in neurology and psychiatry. For instance, all receptor-based antiparkinsonian drugs primarily work via stimulating the D2 DAR, whereas all FDA-approved antipsychotic agents are antagonists of this receptor. The D2 DAR is also therapeutically targeted in other disorders such as restless legs syndrome, tardive dyskinesia, Tourette's syndrome, and hyperprolactinemia.
To this end, a miniaturized qHTS screen was developed to be screened against the Molecular Libraries Small Molecule Repository (MLSMR). This assay seeks to identify agonists against the D2 DAR.
NIH Molecular Libraries Probe Production Network [MLPCN]
NIH Chemical Genomics Center [NCGC]
PI Name: David Sibley, National Institutes of Neurological Disorders and Stroke
DiscoveRx D2 cells were thawed from frozen stock and seeded at 2,100 cells/ 3 uL/well media (DiscoveRx Plating Reagent 2) with MultiDrop Combi dispenser (Thermo Scientific, Logan, UT) onto white tissue culture treated 1536-well Aurora plates (Brooks Automation, Chelmsford, MA) and allowed to attach overnight at 37 deg C, 5% CO2. Next, 23 nL/well of compound solutions in DMSO were added with a pintool transfer (Kalypsis, San Diego, CA). As the positive control, 1 uL/well dopamine (EC100, 57 uM final concentration) diluted in buffer (HBSS + 10 mM HEPES + SMB + 0.1% Tween-20) was dispensed to 1 column of each plate. The rest of the plate was dispensed with buffer only, 1 uL/well as well. The cells were stimulated by compounds or dopamine control for 90 minutes at 37 deg C, 5% CO2, after which 1.5 ul/well of DiscoveRx detection reagent was added with BioRAPTR FRD dispenser. The detection reagent was prepared by mixing of Galacton Star Substrate, Emerald II solution and PathHunter buffer (supplied by the assay kit) together at 1:5:19 proportion accordingly just prior to dispensing. The plates were incubated at ambient temperature for 1 hour and then the luminescent signal was read on ViewLux plate reader (PerkinElmer, Waltham, MA).

Row | Compound | activation
1 | O=C(Nc1ccncc1[N+](=O)[O-])c1ccc([N+](=O)[O-])cc1[N+](=O)[O-] | inconclusive: 36.9%
2 | O=[N+]([O-])c1cc(Oc2ccc([N+](=O)[O-])cc2C(F)(F)F)cc([N+](=O)[O-])c1 | inconclusive: 30.6%
3 | NC(=O)c1cc([N+](=O)[O-])cc([N+](=O)[O-])c1N | inconclusive: 15.4%
4 | O=[N+]([O-])c1cc([N+](=O)[O-])c(CCNc2ccccc2)c([N+](=O)[O-])c1 | inconclusive: 32.3%
5 | CCc1nc2c(n1)c1c(non1O)c1c2no[n+]1[O-] | inconclusive: 26%
